The assay deals with G1 APOL1 (Homo sapiens, UniProt O14791, I384M/S342G). Nature of the assay: Acute APOL1 Thallium Assay with Inducible Stable Clones of HEK 293 Cells. Particulars: read-out: Thallium Assay (IC50), HEK 293 inducible stable clones. An excerpt:
Acute APOL1 Thallium Assay with Inducible Stable Clones of HEK 293 Cells
Apolipoprotein L1 (APOL1) proteins form potassium-permeable cation pores in the plasma membrane. APOL1 risk variants (G1 and G2) induce greater potassium flux than G0 in HEK293 cells. This assay exploits the permeability of thallium (Tl+) through ligand-gated potassium channels. The dye produces a bright fluorescent signal upon binding to Tl+ conducted through potassium channels. The intensity of the Tl+ signal is proportional to the number of potassium channels in the open state. Therefore, it provides a functional indication of the potassium channel activities. During the initial dye-loading step, the Tl+ indicator dye as an acetoxymethyl (AM) ester enters the cells through passive diffusion. […] The increase of fluorescence in the assay represents the influx of Tl+ into the cell specifically through the potassium channel (i.e. through APOL1 pores), providing a functional measurement of potassium channel/pore activity. […]
Preparation of Cell Assay Plates • Culture medium is removed from the x cm^2 T-flask by aspiration. • The cell monolayer is rinsed with PBS 1× at room temperature. […] Cell suspension is then transferred to a 50 mL Falcon polypropylene tube. • Cells are then counted using a BioRad TC10 cell counter and the required amount of cells are centrifuged at 1200 RPM for 5 minutes. […]

Chains of the proteins cited; added tags and fusions are not shown. Residues count along the entry.
UniProt O14791, 28-398 S342G/I384M limits assumed: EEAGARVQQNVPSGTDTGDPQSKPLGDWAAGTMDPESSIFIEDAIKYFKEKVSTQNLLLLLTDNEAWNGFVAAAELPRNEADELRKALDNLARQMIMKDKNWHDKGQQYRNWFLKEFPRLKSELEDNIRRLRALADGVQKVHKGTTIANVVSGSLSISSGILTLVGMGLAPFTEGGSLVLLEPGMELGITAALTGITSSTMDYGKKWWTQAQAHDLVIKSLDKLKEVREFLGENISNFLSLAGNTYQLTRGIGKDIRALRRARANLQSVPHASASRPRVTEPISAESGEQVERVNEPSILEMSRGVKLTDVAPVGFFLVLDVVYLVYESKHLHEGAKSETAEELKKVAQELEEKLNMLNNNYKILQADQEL

The record followed here is US20230014907A1, “INHIBITORS OF APOL1 AND METHODS OF USING SAME” (Vertex Pharmaceuticals Incorporated, priority 2020, published 2023).

Where only a bound is given, the exact number is not on record here.

The term IC50 denotes the point on the concentration scale where inhibition reaches its midpoint. With `O=C(CCc1c(-c2ccccc2)[nH]c2c(C3CC3)cccc12)NC1=CCNC1=O`, the IC50 is > 1000 nM.
